## CycPeptMPDB entries from one study

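The data file gives no further conditions (lipid, pH, time, direction or concentration), and values from different papers need not be comparable. Other peptides of the study may be missing here. Peptides that the database sets to -10, its floor, are left out.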

PAMPA measures passive passage through an artificial lipid membrane.
Permeability is in 10^-6 cm/s, converted from the database's log10 values; higher is more permeable.

structure (SMILES)	PAMPA (10^-6 cm/s)
CCCC[C@@H]1NC(=O)[C@H](CC(C)C)N(C)C(=O)CN(CCc2cccnc2)C(=O)[C@H](Cc2ccc3ccccc3c2)NC(=O)CN(Cc2ccccc2Cn2cccn2)C(=O)[C@H]2CCCN2C1=O	0.39
CCCC[C@@H]1NC(=O)[C@H](CC(C)C)N(C)C(=O)CN(CCCN2CCCC2=O)C(=O)[C@H](C)NC(=O)CN(CCC)C(=O)[C@H]2CCCN2C1=O	0.011
CCCC[C@@H]1NC(=O)[C@H](CC(C)C)N(C)C(=O)CN(CCCc2cnn(C)c2)C(=O)[C@H](CC(C)C)NC(=O)CN(CC)C(=O)[C@H]2CCCN2C1=O	1
CCCC[C@@H]1NC(=O)[C@H](CC(C)C)N(C)C(=O)CN(CCCc2cnn(C)c2)C(=O)[C@H](Cc2ccc3ccccc3c2)NC(=O)CN(Cc2ccc(Cl)cc2)C(=O)[C@H]2CCCN2C1=O	0.01
CCCC[C@@H]1NC(=O)[C@H](CC(C)C)N(C)C(=O)CN(CCCc2ccccc2)C(=O)[C@H](CC(C)C)NC(=O)CN(CCCOC(C)C)C(=O)[C@H]2CCCN2C1=O	2.5
CCCC[C@@H]1NC(=O)[C@H](CC(C)C)N(C)C(=O)CN(CC2CCOCC2)C(=O)[C@H](CC(C)C)NC(=O)CN(Cc2ccccc2Cn2cccn2)C(=O)[C@H]2CCCN2C1=O	4.2
CCCC[C@@H]1NC(=O)[C@H](CC(C)C)N(C)C(=O)CN(CCCc2ccccc2)C(=O)[C@H](Cc2ccccc2)NC(=O)CN(Cc2ccc(Cl)cc2)C(=O)[C@H]2CCCN2C1=O	0.0034
CCCC[C@@H]1NC(=O)[C@H](CC(C)C)N(C)C(=O)CN(CCCc2ccccc2)C(=O)[C@H](CC(C)C)NC(=O)CN(CCN2CCOCC2)C(=O)[C@H]2CCCN2C1=O	4.9
CCCC[C@@H]1NC(=O)[C@H](CC(C)C)N(C)C(=O)CN(CC2CCCCC2)C(=O)[C@H](Cc2ccccc2)NC(=O)CN(Cc2cc(CC(C)C)on2)C(=O)[C@H]2CCCN2C1=O	0.045
CCCCCN1CC(=O)N(C)[C@@H](CC(C)C)C(=O)N[C@@H](CCCC)C(=O)N2CCC[C@@H]2C(=O)N(Cc2ccc3c(c2)OCO3)CC(=O)N[C@@H](Cc2ccc3ccccc3c2)C1=O	0.0013
CCCC[C@@H]1NC(=O)[C@H](CC(C)C)N(C)C(=O)CN(CCCN2CCCC2=O)C(=O)[C@H](Cc2ccccc2)NC(=O)CN(Cc2ccc3c(c2)OCO3)C(=O)[C@H]2CCCN2C1=O	1.4
CCCC[C@@H]1NC(=O)[C@H](CC(C)C)N(C)C(=O)CN(CCOc2ccccc2)C(=O)[C@H](CC(C)C)NC(=O)CN(Cc2cc(CC(C)C)on2)C(=O)[C@H]2CCCN2C1=O	0.23
CCCC[C@@H]1NC(=O)[C@H](CC(C)C)N(C)C(=O)CN(CCOC)C(=O)[C@H](CC(C)C)NC(=O)CN(CC)C(=O)[C@H]2CCCN2C1=O	2.8
CCCC[C@@H]1NC(=O)[C@H](CC(C)C)N(C)C(=O)CN(Cc2ccccc2)C(=O)[C@H](Cc2ccccc2)NC(=O)CN(CCC)C(=O)[C@H]2CCCN2C1=O	2.3
CCCC[C@@H]1NC(=O)[C@H](CC(C)C)N(C)C(=O)CN(Cc2ccccc2)C(=O)[C@H](C)NC(=O)CN(CCN2CCOCC2)C(=O)[C@H]2CCCN2C1=O	0.32
CCCCCN1CC(=O)N(C)[C@@H](CC(C)C)C(=O)N[C@@H](CCCC)C(=O)N2CCC[C@@H]2C(=O)N(CC)CC(=O)N[C@@H](CC(C)C)C1=O	11
CCCC[C@@H]1NC(=O)[C@H](CC(C)C)N(C)C(=O)CN(CCOC)C(=O)[C@H](CC(C)C)NC(=O)CN(CCCOC(C)C)C(=O)[C@H]2CCCN2C1=O	8.9
CCCCCN1CC(=O)N(C)[C@@H](CC(C)C)C(=O)N[C@@H](CCCC)C(=O)N2CCC[C@@H]2C(=O)N(Cc2ccc(Cl)cc2)CC(=O)N[C@@H](C)C1=O	5.4

Repeated from above, the 2 entries with the highest PAMPA:

{"smiles": "CCCCCN1CC(=O)N(C)[C@@H](CC(C)C)C(=O)N[C@@H](CCCC)C(=O)N2CCC[C@@H]2C(=O)N(CC)CC(=O)N[C@@H](CC(C)C)C1=O", "PAMPA (10^-6 cm/s)": "11"}
{"smiles": "CCCC[C@@H]1NC(=O)[C@H](CC(C)C)N(C)C(=O)CN(CCOC)C(=O)[C@H](CC(C)C)NC(=O)CN(CCCOC(C)C)C(=O)[C@H]2CCCN2C1=O", "PAMPA (10^-6 cm/s)": "8.9"}

Source: CycPeptMPDB (Li et al. 2023), which took these values from Furukawa et al. 2016, doi:10.1021/acs.jmedchem.6b01246.